Source: patent publication US10414769B2, “5,8-dimethyl-9-phenyl-5,8-dihydro-6H-pyrazolo[3,4-h]quinazolin-2-yl)-(1H-pyrazol-3-yl)-amines as IGF-1R/IR inhibitors” (Boehringer Ingelheim International GmbH, priority 2015, dated 2019)

Chains of the proteins cited; added tags and fusions are not shown. Residues count along the entry.
UniProt P48729, whole entry: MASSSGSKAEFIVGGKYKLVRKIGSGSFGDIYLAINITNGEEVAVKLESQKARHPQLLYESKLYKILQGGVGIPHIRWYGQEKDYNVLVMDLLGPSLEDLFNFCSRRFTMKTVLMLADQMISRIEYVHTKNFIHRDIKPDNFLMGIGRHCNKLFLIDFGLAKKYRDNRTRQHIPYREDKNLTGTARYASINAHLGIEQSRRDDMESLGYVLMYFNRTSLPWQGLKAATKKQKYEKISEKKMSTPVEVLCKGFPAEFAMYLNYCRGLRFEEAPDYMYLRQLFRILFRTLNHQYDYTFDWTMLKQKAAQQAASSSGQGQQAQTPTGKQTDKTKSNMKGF
UniProt P00533, 25-1210 limits assumed: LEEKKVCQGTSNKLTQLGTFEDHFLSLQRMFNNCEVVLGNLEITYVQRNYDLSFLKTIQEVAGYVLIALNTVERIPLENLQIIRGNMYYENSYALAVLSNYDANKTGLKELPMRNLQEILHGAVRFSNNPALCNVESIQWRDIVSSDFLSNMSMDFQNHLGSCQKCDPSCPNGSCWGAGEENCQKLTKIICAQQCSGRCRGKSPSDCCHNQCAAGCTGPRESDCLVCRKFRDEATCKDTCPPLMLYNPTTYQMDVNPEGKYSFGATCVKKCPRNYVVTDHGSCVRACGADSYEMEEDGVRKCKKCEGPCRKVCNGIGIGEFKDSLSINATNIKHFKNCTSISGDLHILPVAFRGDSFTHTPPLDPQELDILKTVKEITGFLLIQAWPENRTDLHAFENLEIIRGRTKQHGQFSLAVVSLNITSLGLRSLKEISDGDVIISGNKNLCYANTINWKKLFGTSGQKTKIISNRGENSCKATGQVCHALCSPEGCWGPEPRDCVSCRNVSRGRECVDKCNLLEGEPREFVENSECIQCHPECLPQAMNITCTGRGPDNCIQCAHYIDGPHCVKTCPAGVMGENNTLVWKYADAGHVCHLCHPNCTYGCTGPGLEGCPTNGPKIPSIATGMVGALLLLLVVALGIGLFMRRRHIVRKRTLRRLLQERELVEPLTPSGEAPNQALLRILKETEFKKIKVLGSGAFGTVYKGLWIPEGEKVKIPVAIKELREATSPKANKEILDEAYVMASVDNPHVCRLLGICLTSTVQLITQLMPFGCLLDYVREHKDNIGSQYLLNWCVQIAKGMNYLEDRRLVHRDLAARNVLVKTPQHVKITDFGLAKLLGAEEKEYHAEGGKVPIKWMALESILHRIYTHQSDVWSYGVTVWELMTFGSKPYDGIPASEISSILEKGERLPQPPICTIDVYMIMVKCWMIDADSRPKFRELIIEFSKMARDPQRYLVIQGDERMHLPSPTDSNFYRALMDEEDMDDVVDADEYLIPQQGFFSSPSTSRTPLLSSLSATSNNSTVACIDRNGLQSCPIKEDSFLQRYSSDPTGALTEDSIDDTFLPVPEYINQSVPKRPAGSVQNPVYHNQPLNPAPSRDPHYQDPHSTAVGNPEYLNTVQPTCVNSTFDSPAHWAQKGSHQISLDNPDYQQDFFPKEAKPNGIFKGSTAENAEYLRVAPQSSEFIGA
UniProt P11362, 22-822 limits assumed: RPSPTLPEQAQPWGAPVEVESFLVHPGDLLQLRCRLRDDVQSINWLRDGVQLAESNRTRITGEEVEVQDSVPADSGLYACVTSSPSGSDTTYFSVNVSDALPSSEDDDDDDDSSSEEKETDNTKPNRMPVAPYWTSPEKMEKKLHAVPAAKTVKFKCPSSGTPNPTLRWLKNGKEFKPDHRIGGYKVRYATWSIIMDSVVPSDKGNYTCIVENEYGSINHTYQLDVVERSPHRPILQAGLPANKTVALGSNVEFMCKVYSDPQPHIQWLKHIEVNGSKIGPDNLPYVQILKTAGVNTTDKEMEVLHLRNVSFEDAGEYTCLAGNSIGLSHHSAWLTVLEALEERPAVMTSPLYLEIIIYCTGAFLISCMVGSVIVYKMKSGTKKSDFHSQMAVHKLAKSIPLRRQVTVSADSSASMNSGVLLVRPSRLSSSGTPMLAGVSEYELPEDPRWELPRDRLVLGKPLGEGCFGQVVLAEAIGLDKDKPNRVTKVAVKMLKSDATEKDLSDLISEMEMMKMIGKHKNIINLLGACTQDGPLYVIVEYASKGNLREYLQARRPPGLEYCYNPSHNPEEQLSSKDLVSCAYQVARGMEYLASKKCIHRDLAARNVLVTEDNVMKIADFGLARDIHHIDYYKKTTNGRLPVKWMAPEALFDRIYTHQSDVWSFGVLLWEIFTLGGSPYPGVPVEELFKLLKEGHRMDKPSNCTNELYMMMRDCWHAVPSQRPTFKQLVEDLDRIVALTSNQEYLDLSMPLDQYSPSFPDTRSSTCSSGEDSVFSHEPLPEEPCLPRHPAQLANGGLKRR
UniProt Q02750, whole entry: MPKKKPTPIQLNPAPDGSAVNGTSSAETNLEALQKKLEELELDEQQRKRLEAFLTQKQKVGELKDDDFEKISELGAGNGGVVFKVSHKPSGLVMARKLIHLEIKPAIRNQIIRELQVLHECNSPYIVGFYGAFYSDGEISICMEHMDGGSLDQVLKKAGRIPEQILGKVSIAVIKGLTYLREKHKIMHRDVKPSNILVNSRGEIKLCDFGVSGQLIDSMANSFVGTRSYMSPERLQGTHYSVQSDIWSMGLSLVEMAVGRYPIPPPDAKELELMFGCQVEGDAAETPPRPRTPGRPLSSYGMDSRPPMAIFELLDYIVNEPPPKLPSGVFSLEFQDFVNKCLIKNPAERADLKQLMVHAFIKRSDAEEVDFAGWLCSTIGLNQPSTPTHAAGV
UniProt Q16539, whole entry: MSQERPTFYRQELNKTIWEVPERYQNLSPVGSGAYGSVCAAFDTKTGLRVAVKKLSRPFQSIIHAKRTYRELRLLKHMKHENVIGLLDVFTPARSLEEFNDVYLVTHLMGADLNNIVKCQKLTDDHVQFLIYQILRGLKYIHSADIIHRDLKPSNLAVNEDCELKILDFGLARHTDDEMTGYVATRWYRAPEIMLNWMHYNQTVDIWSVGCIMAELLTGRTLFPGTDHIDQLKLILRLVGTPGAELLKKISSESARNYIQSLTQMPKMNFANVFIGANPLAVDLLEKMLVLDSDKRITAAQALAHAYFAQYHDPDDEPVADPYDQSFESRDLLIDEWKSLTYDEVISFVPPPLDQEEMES
UniProt Q9H1R3, whole entry: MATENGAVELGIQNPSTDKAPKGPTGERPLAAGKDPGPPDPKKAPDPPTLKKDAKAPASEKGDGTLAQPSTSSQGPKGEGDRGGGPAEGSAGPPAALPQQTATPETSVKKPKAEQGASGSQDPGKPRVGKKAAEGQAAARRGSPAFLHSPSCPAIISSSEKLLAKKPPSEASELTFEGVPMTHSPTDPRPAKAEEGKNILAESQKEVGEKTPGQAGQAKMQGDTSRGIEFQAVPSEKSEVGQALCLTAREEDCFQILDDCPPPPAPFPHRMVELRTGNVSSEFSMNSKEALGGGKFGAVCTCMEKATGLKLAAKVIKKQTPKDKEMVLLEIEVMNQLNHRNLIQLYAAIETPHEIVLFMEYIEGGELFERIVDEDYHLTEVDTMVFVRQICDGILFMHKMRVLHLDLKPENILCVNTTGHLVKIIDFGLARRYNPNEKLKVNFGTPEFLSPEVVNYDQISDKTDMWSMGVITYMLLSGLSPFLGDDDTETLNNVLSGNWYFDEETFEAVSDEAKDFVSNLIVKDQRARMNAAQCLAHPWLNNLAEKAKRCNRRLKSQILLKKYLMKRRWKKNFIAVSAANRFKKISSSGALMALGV
UniProt P51955, whole entry: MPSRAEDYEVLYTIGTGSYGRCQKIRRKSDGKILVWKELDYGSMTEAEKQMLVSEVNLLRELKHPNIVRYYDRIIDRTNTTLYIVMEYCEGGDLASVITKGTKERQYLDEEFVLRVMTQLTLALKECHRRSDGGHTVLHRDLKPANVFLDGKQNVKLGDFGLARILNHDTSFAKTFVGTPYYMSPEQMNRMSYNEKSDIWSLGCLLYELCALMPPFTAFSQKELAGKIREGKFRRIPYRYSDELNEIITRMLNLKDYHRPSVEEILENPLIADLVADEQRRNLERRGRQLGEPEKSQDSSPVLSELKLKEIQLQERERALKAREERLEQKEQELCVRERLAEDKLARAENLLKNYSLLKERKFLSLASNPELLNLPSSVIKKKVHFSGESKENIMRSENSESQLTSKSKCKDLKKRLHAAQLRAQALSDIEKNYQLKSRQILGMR
UniProt O15530, whole entry: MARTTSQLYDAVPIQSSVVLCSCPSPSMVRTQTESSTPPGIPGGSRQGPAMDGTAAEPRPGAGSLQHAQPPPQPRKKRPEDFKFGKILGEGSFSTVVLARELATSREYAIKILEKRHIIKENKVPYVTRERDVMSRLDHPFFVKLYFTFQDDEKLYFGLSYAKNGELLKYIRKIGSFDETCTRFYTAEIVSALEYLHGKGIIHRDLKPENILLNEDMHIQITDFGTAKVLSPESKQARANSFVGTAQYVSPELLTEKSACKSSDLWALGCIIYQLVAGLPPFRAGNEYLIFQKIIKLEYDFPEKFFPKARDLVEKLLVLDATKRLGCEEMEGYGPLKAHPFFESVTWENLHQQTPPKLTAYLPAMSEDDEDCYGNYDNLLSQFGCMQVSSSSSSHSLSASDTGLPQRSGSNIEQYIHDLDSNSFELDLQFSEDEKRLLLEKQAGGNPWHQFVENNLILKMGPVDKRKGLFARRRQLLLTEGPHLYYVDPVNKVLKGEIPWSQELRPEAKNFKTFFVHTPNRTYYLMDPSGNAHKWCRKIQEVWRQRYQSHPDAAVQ
UniProt P04049, 306-648 Y340D/Y341D limits assumed: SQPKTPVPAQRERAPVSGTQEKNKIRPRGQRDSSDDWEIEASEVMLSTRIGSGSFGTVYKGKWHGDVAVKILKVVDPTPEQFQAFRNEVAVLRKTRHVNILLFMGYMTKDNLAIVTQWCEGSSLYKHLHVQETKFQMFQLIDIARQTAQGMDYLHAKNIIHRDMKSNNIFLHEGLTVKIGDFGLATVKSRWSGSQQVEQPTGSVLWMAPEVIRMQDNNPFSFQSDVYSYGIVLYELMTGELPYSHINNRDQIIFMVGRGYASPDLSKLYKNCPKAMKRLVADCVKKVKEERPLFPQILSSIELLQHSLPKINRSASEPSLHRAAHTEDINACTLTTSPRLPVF
UniProt P78362, whole entry: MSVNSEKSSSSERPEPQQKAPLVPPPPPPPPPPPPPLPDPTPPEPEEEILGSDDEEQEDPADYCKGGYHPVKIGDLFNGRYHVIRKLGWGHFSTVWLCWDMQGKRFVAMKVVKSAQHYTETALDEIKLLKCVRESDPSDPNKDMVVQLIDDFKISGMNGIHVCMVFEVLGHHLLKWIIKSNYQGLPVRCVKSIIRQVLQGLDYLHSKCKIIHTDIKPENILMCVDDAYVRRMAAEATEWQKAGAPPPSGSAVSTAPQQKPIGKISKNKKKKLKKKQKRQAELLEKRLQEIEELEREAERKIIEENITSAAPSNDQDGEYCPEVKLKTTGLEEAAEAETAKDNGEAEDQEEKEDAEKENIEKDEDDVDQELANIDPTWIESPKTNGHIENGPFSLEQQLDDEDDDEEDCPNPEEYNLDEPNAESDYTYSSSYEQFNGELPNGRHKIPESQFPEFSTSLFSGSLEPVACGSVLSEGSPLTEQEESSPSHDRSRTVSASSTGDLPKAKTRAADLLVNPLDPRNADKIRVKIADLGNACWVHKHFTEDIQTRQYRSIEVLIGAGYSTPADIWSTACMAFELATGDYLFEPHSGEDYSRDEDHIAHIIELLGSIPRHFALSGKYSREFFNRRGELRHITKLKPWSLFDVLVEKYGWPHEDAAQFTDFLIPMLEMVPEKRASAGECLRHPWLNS
UniProt P45983, whole entry: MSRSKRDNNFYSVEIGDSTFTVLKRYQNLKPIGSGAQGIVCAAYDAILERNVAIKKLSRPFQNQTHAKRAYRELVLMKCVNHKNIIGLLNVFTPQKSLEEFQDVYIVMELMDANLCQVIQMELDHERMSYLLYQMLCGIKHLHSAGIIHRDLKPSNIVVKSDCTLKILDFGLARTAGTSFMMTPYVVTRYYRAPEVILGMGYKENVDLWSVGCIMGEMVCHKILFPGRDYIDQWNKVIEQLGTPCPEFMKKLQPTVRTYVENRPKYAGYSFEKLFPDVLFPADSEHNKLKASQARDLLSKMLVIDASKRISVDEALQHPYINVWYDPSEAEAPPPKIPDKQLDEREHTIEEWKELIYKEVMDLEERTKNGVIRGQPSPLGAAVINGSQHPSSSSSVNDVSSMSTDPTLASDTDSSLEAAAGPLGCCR
UniProt P45984, whole entry: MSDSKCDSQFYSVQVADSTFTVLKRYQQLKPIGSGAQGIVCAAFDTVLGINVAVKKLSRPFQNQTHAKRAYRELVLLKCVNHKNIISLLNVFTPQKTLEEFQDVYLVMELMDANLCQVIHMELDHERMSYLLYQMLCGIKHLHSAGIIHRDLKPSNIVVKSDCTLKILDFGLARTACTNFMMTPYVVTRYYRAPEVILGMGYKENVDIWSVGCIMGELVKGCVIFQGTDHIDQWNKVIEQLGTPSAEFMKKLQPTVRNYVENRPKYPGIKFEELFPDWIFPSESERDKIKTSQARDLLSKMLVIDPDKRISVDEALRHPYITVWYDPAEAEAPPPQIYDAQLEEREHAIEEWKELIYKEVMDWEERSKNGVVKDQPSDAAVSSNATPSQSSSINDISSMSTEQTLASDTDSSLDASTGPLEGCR

Columns and labels:
[1] = tested on: TC-71 (EWING'S sarcoma) cells; assay: Cell proliferation assay TC-71 (Alamar Blue); details: read-out: TC71 EC50; anti-proliferative effect, TC-71 cells, 72 h
[2] = tested on: HCT 116 (colorectal carcinoma) cells; assay: Cell proliferation assay HCT 116 (Alamar Blue); details: for cellular potency on HCT 116 colorectal cancer cells (in words): HCT 116, proliferation independent from IGF-1R signaling; for EC50: read-out: HCT 116 EC50, anti-proliferative effect, HCT 116 cells (negative control line), 72 h
[3] = target: standard panel of 30 kinases; assay: Kinase selectivity panel (SelectScreen Z'-LYTE), number of kinases inhibited; details: count out of 30 kinases
ABL1 = ABL1 (Homo sapiens, UniProt P00519); assay: Z'-LYTE kinase selectivity assay ABL1; details: 1 μM
ACVR1B (ALK4) = ACVR1B (ALK4) (Homo sapiens, UniProt P36896); assay: Z'-LYTE kinase selectivity assay ACVR1B; details: 1 μM
AKT2 (PKB beta) = AKT2 (PKB beta) (Homo sapiens, UniProt P31751); assay: Z'-LYTE kinase selectivity assay AKT2; details: 1 μM
AMPK A1/B1/G1 = AMPK A1/B1/G1 (Homo sapiens, UniProt Q13131); assay: Z'-LYTE kinase selectivity assay AMPK A1/B1/G1; details: 1 μM
CDK2/cyclin A = CDK2/cyclin A (Homo sapiens, UniProt P24941); assay: Z'-LYTE kinase selectivity assay CDK2/cyclin A; details: 1 μM
CHEK1 (CHK1) = CHEK1 (CHK1) (Homo sapiens, UniProt O14757); assay: Z'-LYTE kinase selectivity assay CHEK1; details: 1 μM
CSNK1A1 (CK1 alpha 1) = CSNK1A1 (CK1 alpha 1) (Homo sapiens, UniProt P48729); assay: Z'-LYTE kinase selectivity assay CSNK1A1; details: 1 μM
CSNK2A1 (CK2 alpha 1) = CSNK2A1 (CK2 alpha 1) (Homo sapiens, UniProt P68400); assay: Z'-LYTE kinase selectivity assay CSNK2A1; details: 1 μM
EGFR (ErbB1) = EGFR (ErbB1) (Homo sapiens, UniProt P00533); assay: Z'-LYTE kinase selectivity assay EGFR; details: 1 μM
EPHB2 = EPHB2 (Homo sapiens, UniProt P29323); assay: Z'-LYTE kinase selectivity assay EPHB2; details: 1 μM
FGFR1 = FGFR1 (Homo sapiens, UniProt P11362); assay: Z'-LYTE kinase selectivity assay FGFR1; details: 1 μM
FRAP1 (mTOR) = FRAP1 (mTOR) (Homo sapiens, UniProt P42345); assay: Z'-LYTE kinase selectivity assay FRAP1 (mTOR); details: 1 μM
GSK3B (GSK3 beta) = GSK3B (GSK3 beta) (Homo sapiens, UniProt P49841); assay: Z'-LYTE kinase selectivity assay GSK3B; details: 1 μM
LCK = LCK (Homo sapiens, UniProt P06239); assay: Z'-LYTE kinase selectivity assay LCK; details: 1 μM
MAP2K1 (MEK1) = MAP2K1 (MEK1) (Homo sapiens, UniProt Q02750); assay: Z'-LYTE kinase selectivity assay MAP2K1; details: 1 μM
MAP3K8 (COT) = MAP3K8 (COT) (Homo sapiens, UniProt P41279); assay: Z'-LYTE kinase selectivity assay MAP3K8; details: 1 μM
MAPK14 (p38 alpha) = MAPK14 (p38 alpha) (Homo sapiens, UniProt Q16539); assay: Z'-LYTE kinase selectivity assay MAPK14; details: 1 μM
MAPKAPK2 = MAPKAPK2 (Homo sapiens, UniProt P49137); assay: Z'-LYTE kinase selectivity assay MAPKAPK2; details: 1 μM
MYLK2 (skMLCK) = MYLK2 (skMLCK) (Homo sapiens, UniProt Q9H1R3); assay: Z'-LYTE kinase selectivity assay MYLK2; details: 1 μM
NEK2 = NEK2 (Homo sapiens, UniProt P51955); assay: Z'-LYTE kinase selectivity assay NEK2; details: 1 μM
PAK4 = PAK4 (Homo sapiens, UniProt O96013); assay: Z'-LYTE kinase selectivity assay PAK4; details: 1 μM
PDK1 Direct = PDK1 Direct (Homo sapiens, UniProt O15530); assay: Z'-LYTE kinase selectivity assay PDK1; details: 1 μM
PRKACA (PKA) = PRKACA (PKA) (Homo sapiens, UniProt P17612); assay: Z'-LYTE kinase selectivity assay PRKACA; details: 1 μM
RAF1 (cRAF) Y340D Y341D = RAF1 (cRAF) Y340D Y341D (Homo sapiens, UniProt P04049, Y340D/Y341D); assay: Z'-LYTE kinase selectivity assay RAF1; details: 1 μM
ROCK2 = ROCK2 (Homo sapiens, UniProt O75116); assay: Z'-LYTE kinase selectivity assay ROCK2; details: 1 μM
CAMK2D (CaMKII delta) = CAMK2D (CaMKII delta) (Homo sapiens, UniProt Q13557); assay: Z'-LYTE kinase selectivity assay CAMK2D; details: 1 μM
SRPK2 = SRPK2 (Homo sapiens, UniProt P78362); assay: Z'-LYTE kinase selectivity assay SRPK2; details: 1 μM
STK3 (MST2) = STK3 (MST2) (Homo sapiens, UniProt Q13188); assay: Z'-LYTE kinase selectivity assay STK3; details: 1 μM
STK6 (AURKA (Aurora A)) = STK6 (AURKA (Aurora A)) (Homo sapiens, UniProt O14965); assay: Z'-LYTE kinase selectivity assay STK6; details: 1 μM
TBK1 = TBK1 (Homo sapiens, UniProt Q9UHD2); assay: Z'-LYTE kinase selectivity assay TBK1; details: 1 μM
MAPK8 (JNK1) = MAPK8 (JNK1) (Homo sapiens, UniProt P45983); assay: Z'-LYTE kinase selectivity assay MAPK8; details: 1 μM
MAPK9 (JNK2) = MAPK9 (JNK2) (Homo sapiens, UniProt P45984); assay: Z'-LYTE kinase selectivity assay MAPK9; details: 1 μM

Structure (SMILES) | EC50 [1] [nM] | cellular potency on HCT 116 colorectal cancer cells (in words) [2] | EC50 [2] [nM] | # kinases inhibited >50% @ 1 μM [3] | ABL1 % inhibition (ABL1) [%] | ACVR1B % inhibition (ACVR1B (ALK4)) [%] | AKT2 % inhibition (AKT2 (PKB beta)) [%] | AMPK A1B1G1 % inhibition (AMPK A1/B1/G1) [%] | CDK2/CYCLINA % inhibition (CDK2/cyclin A) [%] | CHEK1 % inhibition (CHEK1 (CHK1)) [%] | CSNK1A1 % inhibition (CSNK1A1 (CK1 alpha 1)) [%] | CSNK2A1 % inhibition (CSNK2A1 (CK2 alpha 1)) [%] | EGFR % inhibition (EGFR (ErbB1)) [%] | EPHB2 % inhibition (EPHB2) [%] | FGFR1 % inhibition (FGFR1) [%] | FRAP1 (MTOR) % inhibition (FRAP1 (mTOR)) [%] | GSK3B % inhibition (GSK3B (GSK3 beta)) [%] | LCK % inhibition (LCK) [%] | MAP2K1 % inhibition (MAP2K1 (MEK1)) [%] | MAP3K8 % inhibition (MAP3K8 (COT)) [%] | further results
COCCN1CCN(CCn2ccc(Nc3ncc4c(n3)-c3c(nn(C)c3-c3ccccc3)CC4)n2)CC1 | 5.28 | relatively high cellular potency | 512 | 12/30 | 24 | −16 | 8 | 52 | 77 | 28 | 11 | 29 | 55 | 72 | 50 | 6 | 33 | 86 | 93 | 78 | MAPK14 % inhibition (MAPK14 (p38 alpha)): 11%; MAPKAPK2 % inhibition (MAPKAPK2): 9%; MYLK2 % inhibition (MYLK2 (skMLCK)): 36%; NEK2 % inhibition (NEK2): 11%; PAK4 % inhibition (PAK4): 61%; PDK1 % inhibition (PDK1 Direct): 17%; PRKACA % inhibition (PRKACA (PKA)): 18%; RAF1 % inhibition (RAF1 (cRAF) Y340D Y341D): 90%; ROCK2 % inhibition (ROCK2): −18%; CAMK2D % inhibition (CAMK2D (CaMKII delta)): 55%; SRPK2 % inhibition (SRPK2): 7%; STK3 % inhibition (STK3 (MST2)): −15%; STK6 (Aur A) % inhibition (STK6 (AURKA (Aurora A))): 76%; TBK1 % inhibition (TBK1): 78%; MAPK8 % inhibition (MAPK8 (JNK1)): 61%; MAPK9 % inhibition (MAPK9 (JNK2)): 59%
Cn1nc2c(c1-c1ccccc1)-c1nc(Nc3ccn(CCN4CCN(CCO)CC4)n3)ncc1CC2 | 9.77 | relatively high cellular potency | 632 | 13/30 | 44 | −14 | 7 | 62 | 84 | 34 | 14 | 27 | 74 | 77 | 59 | 15 | 32 | 89 | 96 | 81 | MAPK14 % inhibition (MAPK14 (p38 alpha)): 46%; MAPKAPK2 % inhibition (MAPKAPK2): 12%; MYLK2 % inhibition (MYLK2 (skMLCK)): 48%; NEK2 % inhibition (NEK2): 18%; PAK4 % inhibition (PAK4): 60%; PDK1 % inhibition (PDK1 Direct): 20%; PRKACA % inhibition (PRKACA (PKA)): 17%; RAF1 % inhibition (RAF1 (cRAF) Y340D Y341D): 92%; ROCK2 % inhibition (ROCK2): −11%; CAMK2D % inhibition (CAMK2D (CaMKII delta)): 59%; SRPK2 % inhibition (SRPK2): 11%; STK3 % inhibition (STK3 (MST2)): −4%; STK6 (Aur A) % inhibition (STK6 (AURKA (Aurora A))): 72%; TBK1 % inhibition (TBK1): 81%
CN(C)C1CCN(CCn2ccc(Nc3ncc4c(n3)-c3c(nn(C)c3-c3ccccc3)CC4)n2)CC1 | 3.64 | relatively high cellular potency | 297 |  |  |  |  |  |  |  |  |  |  |  |  |  |  |  |  |  | 
